## scFv variants of Ab-91 (heavy chain) against a SARS-CoV-2 spike peptide

Values reported by Engelhart et al. 2022, doi:10.1038/s41597-022-01779-4 (FLAb copy).

All variants were tested on one target, the spike HR2 peptide PDVDLGDISGINAS (SARS-CoV-2).

Each scFv is VL, a (GGGGS)3 linker, VH, as in the parent Ab-91, and differs from it in the CDRs of the heavy chain only.
VL: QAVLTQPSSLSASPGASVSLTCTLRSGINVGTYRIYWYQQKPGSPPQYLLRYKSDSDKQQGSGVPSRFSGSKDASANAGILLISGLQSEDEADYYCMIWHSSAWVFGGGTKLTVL
VH: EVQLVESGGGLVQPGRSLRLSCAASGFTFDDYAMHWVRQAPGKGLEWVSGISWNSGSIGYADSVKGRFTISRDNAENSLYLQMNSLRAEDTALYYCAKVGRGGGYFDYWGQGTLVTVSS

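Phage display of a naive human antibody library on the peptide gave the parent. Library AAYL51 holds single substitutions and randomly drawn double and triple substitutions in the CDRs. The assay is AlphaSeq: two haploid yeast populations carry antibody and antigen on their surface. Binding brings cells together so that they mate, and sequencing counts the barcode pairs among the diploids. Read counts were normalised to the haploid input and turned into Kd by a linear fit to BCL2-family pairs of known affinity, for each replicate. Each pool was mated in three replicate cultures.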

The parent's heavy chain CDRs are GFTFDDYAMH, GISWNSGSIGYADSVK, VGRGGGYFDY; each variant's own CDRs replace them letter for letter.
Kd is apparent (estimated from mating counts) and averaged on the log scale over replicates with a signal. Smaller is tighter.
"nd" marks a missing value. The strain was present, yet no cells mated with the target were sequenced in any replicate, which points to weak or no binding.
Empty control strains, which show no peptide, gave a signal in 21% of pairings with library AAYL51; the median was 34 µM and 95% of these signals were weaker than 1.8 µM. No background was subtracted. Also given: how often the same scFv was detected with the empty control strains.

For GFTVDDYAMQ / GISWNSGSIGYADSVK / VGRGGGYFDY, the assay gave 140 µM (3 of 3 replicates; controls 6 of 9).
For GFTTDDIAMH / GISWNSISIGYADSVK / VGRGGGYFDY, the assay gave nd (0 of 3 replicates; controls 1 of 9).
For GFTFDDYAMH / GCSWNSGSIAYADSVK / VGRGTGYFDY, the assay gave nd (0 of 3 replicates; controls 1 of 9).
For GNTFDDYAMH / GISWNSGSIGYMDSVK / VGRGGGYFDY, the assay gave nd (0 of 3 replicates; controls 0 of 9).
For GFHFDDYAMH / GISWNSGSIGYADSVK / VGRGGGYFDA, the assay gave 2.7 nM (3 of 3 replicates; controls 6 of 9).
For GFTFDDYFMH / GIVWNSGSIGYADSVK / VGRGGGYCDY, the assay gave nd (0 of 3 replicates; controls 0 of 9).
For GFTFDDYAMP / GISWNSGSPGYADSVK / VGREGGYFDY, the assay gave 110 µM (1 of 3 replicates; controls 0 of 9).
For GFTFDDYAMH / GIPWNSGSIGYADTVK / VGRGGGYFDE, the assay gave 160 µM (3 of 3 replicates; controls 2 of 9).
For GFTFDDYAMH / TISWNSGSIGYADHVK / VGFGGGYFDY, the assay gave nd (0 of 3 replicates; controls 0 of 9).
For GFTVCDYAMH / GISWNSGSIGYADSVK / EGRGGGYFDY, the assay gave 140 µM (3 of 3 replicates; controls 4 of 9).
For GFVQDDYAMH / GISWNSGSIGYADSVK / VGRGGGYFVY, the assay gave 590 µM (3 of 3 replicates; controls 6 of 9).
For GGTFDDYAMH / GISWNSGSNGYADHVK / VGRGGGYFDY, the assay gave 420 nM (1 of 3 replicates; controls 1 of 9).
For GFTFDDYAMH / GISWNSGSICYADSVK / VGLGGGYSDY, the assay gave nd (0 of 3 replicates; controls 3 of 9).
For GFTFDDYAMH / GISWNSGSIGYYDSVK / VFRGGGYFIY, the assay gave nd (0 of 3 replicates; controls 0 of 9).
For GFTFDDYAMH / GISQNSGSIGYADSYW / VGRGGGYFDY, the assay gave 5.4 µM (2 of 3 replicates; controls 1 of 9).
For GFTFDDYAMH / VISWNSGSIGYAVSVK / VGTGGGYFDY, the assay gave nd (0 of 3 replicates; controls 2 of 9).
For GFTFDDYAMH / GISTNSGSIGYADSVK / FGRGGGYTDY, the assay gave 17 nM (3 of 3 replicates; controls 5 of 9).
For GFTMDDYAMH / GISWNSGSIGYADYVK / VGMGGGYFDY, the assay gave 5.7 µM (2 of 3 replicates; controls 3 of 9).
For WFTFDDEAMH / GISWNSGSIGYADSVK / VGRGGGSFDY, the assay gave nd (0 of 3 replicates; controls 0 of 9).
For GETFDDYAMH / GTSWNSGSIGYADSVK / VGRWGGYFDY, the assay gave 5.5 µM (1 of 3 replicates; controls 0 of 9).
For GFTFDDYAMH / GISINSGSIGQADSVK / IGRGGGYFDY, the assay gave 48 µM (2 of 3 replicates; controls 4 of 9).
For GFTFKDYAMH / GISWNSGSIGYADSVP / VGRGAGYFDY, the assay gave 96 nM (3 of 3 replicates; controls 4 of 9).
For GNIFDDYAMH / GCSWNSGSIGYADSVK / VGRGGGYFDY, the assay gave nd (0 of 3 replicates; controls 0 of 9).
For GFTFDDYAMG / GISWNSLSIGYDDSVK / VGRGGGYFDY, the assay gave 8.2 µM (1 of 3 replicates; controls 2 of 9).
For GFTFDDYAMH / GISWNYGSIGWADLVK / VGRGGGYFDY, the assay gave 59 µM (2 of 3 replicates; controls 1 of 9).
For GFTFDDVAMH / GISWNSGSIGVADSVK / VGRGGGYNDY, the assay gave 800 nM (3 of 3 replicates; controls 3 of 9).
For GGTFDDYAKH / GISWNSGEIGYADSVK / VGRGGGYFDY, the assay gave nd (0 of 3 replicates; controls 4 of 9).
For GFCFDDYAMH / GISWNPGSIGYADKVK / VGRGGGYFDY, the assay gave 24 µM (1 of 3 replicates; controls 5 of 9).
For GFTFDDYAMH / GIVWNSGSIGYADSVK / VGRGRVYFDY, the assay gave nd (0 of 3 replicates; controls 2 of 9).
For GFTFDDYAMH / GISWLSGSIGYADRVK / VGRGGRYFDY, the assay gave nd (0 of 3 replicates; controls 2 of 9).
For GFTFDDYAMH / GISWNSGSIGYADSVK / VDRGGGVFDV, the assay gave nd (0 of 3 replicates; controls 0 of 9).
For GFTFDDYAMH / GISWCSGSIGYADSVK / VGNGGGYFDY, the assay gave 18 µM (1 of 3 replicates; controls 3 of 9).
For GNTFDDYAAH / GISWNSGFIGYADSVK / VGRGGGYFDY, the assay gave nd (0 of 3 replicates; controls 2 of 9).
For GFTFDDYAMH / GISWNFDSIGYATSVK / VGRGGGYFDY, the assay gave 270 nM (1 of 3 replicates; controls 0 of 9).
For GFTFDDYAMH / GISWNSVSRGYADSVK / VGRGGGYFRY, the assay gave nd (0 of 3 replicates; controls 1 of 9).
For GFTFDDYAMH / GISWNSWSIGYKDSVV / VGRGGGYFDY, the assay gave nd (0 of 3 replicates; controls 0 of 9).
For GFTFRDEAMH / GISINSGSIGYADSVK / VGRGGGYFDY, the assay gave 14 µM (1 of 3 replicates; controls 1 of 9).
For GVTFIDYAMH / GISWNSGSIGYADSNK / VGRGGGYFDY, the assay gave 43 µM (1 of 3 replicates; controls 1 of 9).
For GFTFDDYWMH / GISWNSGSIGYADSVK / VGFGGGYFDY, the assay gave nd (0 of 3 replicates; controls 2 of 9).
For GFTFDDYAMH / IISWNSGSIGYADSVK / VGRGGQYIDY, the assay gave nd (0 of 3 replicates; controls 1 of 9).
For GFTFDDYAMH / GISWNSGSIGYADSYK / VGRWGGYFDY, the assay gave nd (0 of 3 replicates; controls 0 of 9).
For GFTFDSYAMH / QISWNSHSIGYADSVK / VGRGGGYFDY, the assay gave nd (0 of 3 replicates; controls 1 of 9).

Picked from the list: the 6 lowest averages where every replicate gave a value.

For GFHFDDYAMH / GISWNSGSIGYADSVK / VGRGGGYFDA, the assay gave 2.7 nM (3 of 3 replicates; controls 6 of 9).
For GFTFDDYAMH / GISTNSGSIGYADSVK / FGRGGGYTDY, the assay gave 17 nM (3 of 3 replicates; controls 5 of 9).
For GFTFKDYAMH / GISWNSGSIGYADSVP / VGRGAGYFDY, the assay gave 96 nM (3 of 3 replicates; controls 4 of 9).
For GFTFDDVAMH / GISWNSGSIGVADSVK / VGRGGGYNDY, the assay gave 800 nM (3 of 3 replicates; controls 3 of 9).
For GFTVDDYAMQ / GISWNSGSIGYADSVK / VGRGGGYFDY, the assay gave 140 µM (3 of 3 replicates; controls 6 of 9).
For GFTVCDYAMH / GISWNSGSIGYADSVK / EGRGGGYFDY, the assay gave 140 µM (3 of 3 replicates; controls 4 of 9).

In this assay the parent's reference entry averaged 72 nM; its copy inside this library read 7.5 nM.